Amino acid sequences for entries named in this document (tags omitted). Residues count along the entry.
UniProt H6UEU3, 23-163 limits assumed: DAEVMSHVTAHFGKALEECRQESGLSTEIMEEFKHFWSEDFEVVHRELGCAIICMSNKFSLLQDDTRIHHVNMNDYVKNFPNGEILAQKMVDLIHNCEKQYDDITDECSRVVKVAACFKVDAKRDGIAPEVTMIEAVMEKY

In PMC10051560, “Identification and Functional Characterization of General Odorant Binding Proteins in Orthaga achatina” (Insects, 2023):

Target: OachGOBP2 (Orthaga achatina, UniProt H6UEU3)
Experiment: Fluorescence competitive binding assay (1-NPN displacement), OachGOBP2
Conditions: read-out: GOBP2 Ki; Ki = [IC50]/(1 + [1-NPN]/K1-NPN); 2 µM protein and 2 µM 1-NPN in 50 mM Tris HCl

Q: How did the Ki turn out when `CCCC/C=C\CCCCCCCCCC=O` [Z11-16: Ald] was run?
A: > 30 µM
